Target: Amine oxidase [flavin-containing] B (Homo sapiens, UniProt P27338)
Assay: biochemical
Assay type: cell-based, BTI

Amino acid sequences for entries named in this document (tags omitted).
UniProt P27338, whole entry: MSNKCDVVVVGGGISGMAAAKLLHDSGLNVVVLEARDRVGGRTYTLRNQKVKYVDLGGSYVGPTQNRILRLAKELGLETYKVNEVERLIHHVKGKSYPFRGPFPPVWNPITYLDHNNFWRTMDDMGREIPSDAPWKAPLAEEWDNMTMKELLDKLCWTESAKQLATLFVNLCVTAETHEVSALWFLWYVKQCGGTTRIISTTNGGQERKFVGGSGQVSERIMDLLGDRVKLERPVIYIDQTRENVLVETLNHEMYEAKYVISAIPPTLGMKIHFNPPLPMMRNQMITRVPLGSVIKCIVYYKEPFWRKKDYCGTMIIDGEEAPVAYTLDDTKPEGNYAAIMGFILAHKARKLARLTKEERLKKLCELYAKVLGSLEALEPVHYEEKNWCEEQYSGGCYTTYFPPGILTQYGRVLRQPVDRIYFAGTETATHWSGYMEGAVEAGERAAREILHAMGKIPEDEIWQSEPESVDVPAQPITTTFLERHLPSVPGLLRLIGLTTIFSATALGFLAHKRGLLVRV

IC50: 21.9 µM
SMILES: NNCCc1ccccc1 [PHENELZINE]

From ChEMBL document CHEMBL5325495, “Synthesis and anti-cancer potential of potent peripheral MAOA inhibitors designed to limit blood:brain penetration” (Bioorg Med Chem, 2023)
